# Measurements: patent US20120046251A1, “INHIBITORS OF SOLUBLE EPOXIDE HYDROLASE TO INHIBIT OR PREVENT NIACIN-INDUCED FLUSHING” (The Regents of the University of California, priority 2009, published 2012)
# Test system: C57BL/6 mice
# Test: Niacin-induced flushing: laser Doppler ear blood flow in anesthetized mice
# Assay type: in vivo, mouse
# Conditions: i.p. 30 minutes before niacin 30 mg/kg; TPAU 0.01-1 mg/kg, others 4 mg/kg
structure (smiles),measurement,value
"O=C(NC12CC3CC(CC(C3)C1)C2)N[C@H]1CC[C@H](Oc2ccc(C(=O)O)cc2)CC1 (relative stereo) [t-AUCB, trans-4-[4-(3-adamantan-1-ylureido)cyclohexyloxy]benzoic acid]","peak ear tissue perfusion after niacin (composite, FIG. 9)",significantly reduced peak ear tissue perfusion
